# Screening data: PubChem, ICCB-Longwood Screening Facility, Harvard Medical School
# GIV-Gai inh: blocks GIV peptide binding to rat Galpha-i3. P08753. Galpha-i3/FITC-GIV peptide fluorescence polarization, 90 min; stronger effect = lower value; scaled: aluminum fluoride 0%, vehicle 100%. percent of control (FP), % (test concentration not listed). 0.42% of 210,000 active. AID 1224905;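 active = replicate mean at 85% of control or lower, very high polarization wells dropped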;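 note: wells of about 15 µL received 100 nL stock; the first replicate is given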
# GIV Gai FP conf: inhibitors of GIV peptide binding to Galpha-i3, confirmation, biochemical, fluorescence polarization, FITC-GIV peptide, rat Galphai3; shares compounds with GIV-Gai inh; stronger effect = lower value; fluorescence polarization, mP at 100 µM; 580 compounds, 38% hits; AID 1259350, 2017;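 active = inhibition score of 15 or more, meaning 100 minus mean polarization as percent of control over three replicates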
# GIV-Gai AS conf: inhibitors of GIV binding to Galpha-i3, confirmation, orthogonal assay for GIV-Galpha-i inhibitor project, biochemical, AlphaScreen, His-GIV, GST-Galphai3; shares compounds with GIV-Gai inh; purified proteins, 90 min; stronger effect = lower value; AlphaScreen counts at 100 µM; 580 compounds, 39% hits;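 active = inhibition score at or above a set limit, where the score is 100 minus the three-replicate mean percent of control signal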
# A number is an active result; i = inactive. Many of the other results were omitted from the sample, so hits are more common in it than they were.
SMILES,GIV-Gai inh,others
Cc1cc(C)c(C2C(=O)[C@H]3[C@@H](C2=O)N2CCCN2[C@@H]3c2ccccc2)c(C)c1 (stereo partly specified),i,
CCOc1cc(C2C(C#N)=C(N)Oc3n[nH]c(-c4ccc(OC)cc4)c32)cc(Br)c1O (stereo unspecified),i,
CCN1/C(=C(\C#N)c2nc(C#N)c(C#N)nc2N2CCOCC2)Nc2ccccc21,67,GIV Gai FP conf=i;GIV-Gai AS conf=i
CCNC(=O)c1nc(N2CCOCC2)c2ccccc2n1,i,
CN1CCN(c2nc(C#N)c(C#N)nc2C(C#N)=C2Nc3ccccc3N2)CC1,i,
CCOc1c(C)cnc2c1c(=O)n(CC(=O)Nc1ccc3c(c1)OCCO3)c(=O)n2C,i,
O=C(Cc1ccccc1)NC1=C(C(=O)c2ccccc2)N(Cc2ccccc2)S(=O)(=O)c2ccccc21,i,
Cc1cc(C)c2c(N)c(C(=O)Nc3ccc(S(N)(=O)=O)cc3)sc2n1,i,
CC1=C(C(=O)OC2CCCCC2)C(c2coc3ccc(Cl)cc3c2=O)C2=C(CCCC2=O)N1 (stereo unspecified),i,
CCSCCOC(=O)C1=C(C)NC2=C(C(=O)CC(C)(C)C2)C1c1coc2ccc(C)cc2c1=O (stereo unspecified),i,
CC1=C(C(=O)OC2CCCCC2)C(c2coc3ccc(Cl)cc3c2=O)C2=C(CC(C)(C)CC2=O)N1 (stereo unspecified),i,GIV Gai FP conf=i;GIV-Gai AS conf=i
O=C(NC1CCCC1)C1CCCN(C(=O)c2cc(-c3ccncc3)n[nH]2)C1 (stereo unspecified),i,
CCOC(=O)C1CCN(C(=O)c2cc3cccc4c3n2CC(CC)O4)CC1 (stereo unspecified),i,
O=C1C(Sc2ncn[nH]2)=C/C(=N/S(=O)(=O)c2ccc(F)cc2)c2ccccc21,3.7,GIV Gai FP conf=36;GIV-Gai AS conf=5053
O=S(=O)(Nc1cc(Sc2ncn[nH]2)c(O)c2ccccc12)c1cccs1,i,
CCOc1ccc(CSc2ncn[nH]2)cc1,i,
O=C1C(Sc2ncn[nH]2)=C/C(=N/S(=O)(=O)c2cccs2)c2ccccc21,18,GIV Gai FP conf=40;GIV-Gai AS conf=4995
O=S(=O)(Nc1ccccn1)c1ccc(F)cc1,i,
CCOc1ccc(S(=O)(=O)/N=C(\N)c2ccccc2)cc1,i,
O=C(CSc1ncn[nH]1)c1ccc(F)cc1,i,
O=C(Nc1ncn[nH]1)c1cccs1,i,
CCOc1ccc(S(=O)(=O)/N=C2/C=C(Sc3ncn[nH]3)C(=O)c3ccccc32)cc1,11,GIV Gai FP conf=32;GIV-Gai AS conf=6312
CC(C)c1nnc(NC(=O)c2cc(-c3ccccc3)on2)s1,i,
COc1c2occc2c(OC)c2c(=O)cc(C(F)(F)C(F)(F)C(F)(F)C(F)(F)F)oc12,i,
Cn1c(=O)c([N+](=O)[O-])c(N2CCCC2)c2ccccc21,i,
SMILES,GIV-Gai inh,others
Cc1ccc(-c2noc(C3CC3)n2)cc1S(=O)(=O)N1CCC(C(=O)N2CCc3ccccc32)CC1,i,
O=C(CCc1nc(-c2ccc(S(=O)(=O)N3CCOCC3)cc2)no1)N1CCOCC1,i,
O=C(O)Cn1cc(/C=C2/C(=O)NC(=O)N(c3ccccc3F)C2=O)c2ccccc21,i,
COc1ccc(CCNS(=O)(=O)c2cc(-c3nc(C)cs3)sc2C)cc1OC,i,
CCCc1nnc2n1NC(c1ccc(C)cc1)C(C(=O)Nc1cc(Cl)ccc1C)S2 (stereo unspecified),i,
O=C1c2ccccc2S(=O)(=O)c2cc(-c3nn[nH]n3)ccc21,i,
O=C1/C(=C/c2ccc(-c3nn[nH]n3)cc2)C(c2ccccc2)Oc2ccccc21 (stereo unspecified),i,
O=C1C(Cc2ccc(-c3nn[nH]n3)cc2)=C(c2ccccc2)S(=O)(=O)c2ccccc21,i,GIV Gai FP conf=i;GIV-Gai AS conf=36755
Cc1nnc2ccc(NCc3ccccc3)nn12,i,
COc1ccc(C(=O)COC(=O)C(Cc2c[nH]c3ccccc23)NC(=O)C23CC4CC(CC(C4)C2)C3)cc1 (stereo unspecified),i,
COc1ccc(-c2cc(C(F)(F)F)nc(SCCC(=O)N3CCC(C)CC3)n2)cc1,i,
Cc1sc2nc(/C=C/c3ccco3)oc(=O)c2c1C,79,GIV Gai FP conf=i;GIV-Gai AS conf=i
Cc1sc2nc(-c3cccc([N+](=O)[O-])c3)oc(=O)c2c1C,i,
O=c1oc(/C=C/c2cccs2)nc2sc3c(c12)CCCC3,i,
Cn1ncc2c(N3CCN(c4ccccc4)CC3)ncnc21,i,
Cc1ccc(-c2nn3c(=O)c4ccccc4nc3c3ccccc23)cc1,i,
Nc1nc2c3cccc4cccc(c(=O)n2n1)c43,80,GIV Gai FP conf=i;GIV-Gai AS conf=i
Cc1cc2nc3c4cccc5cccc(c(=O)n3c2cc1C)c54,i,
COC(=O)c1ccc(C=C(C#N)C#N)n1-c1ccc(F)cc1,i,
COC(=O)c1cnn(-c2c(Cl)cccc2Cl)c1C=C(C#N)C#N,i,
COC(=O)c1cc(-c2cocc2C=C(C#N)C#N)ccc1Cl,52,GIV Gai FP conf=i;GIV-Gai AS conf=i
COc1ccccc1NC(=O)c1cc2sc3ccccc3c2s1,i,
Cc1nc(N=Nc2cc(S(=O)(=O)O)c3cc([N+](=O)[O-])cc(S(=O)(=O)O)c3c2)c(COP(=O)(O)O)c(C=O)c1O,17,GIV Gai FP conf=53;GIV-Gai AS conf=3265
Oc1ccc(NCc2ccccc2OCc2ccc(Cl)cc2)cc1,i,
CCOc1cc(CNc2ccc(O)cc2)cc(Br)c1OCc1ccccc1,i,
SMILES,GIV-Gai inh,others
CCOc1cc(CNc2ccc(O)cc2)ccc1OCc1ccc(Cl)cc1,76,GIV Gai FP conf=61;GIV-Gai AS conf=10130
CCCCNC(=O)C1CCN(c2ccc(F)cc2)C1=O (stereo unspecified),i,
CCOc1cc(/C=C2\N=C(c3ccc(Br)cc3)OC2=O)ccc1OC(C)=O,i,
CCCCOc1ccc(C2=N/C(=C\c3ccc(OC(C)=O)c(OC(C)=O)c3)C(=O)O2)cc1,72,GIV Gai FP conf=i;GIV-Gai AS conf=i
CCCCOc1ccc(C2=N/C(=C\c3ccc(OC)c(OC(C)=O)c3)C(=O)O2)cc1,i,
CCOc1ccc(NC(=O)c2c(NC(=O)c3ccccc3)sc3c2CCCCC3)cc1,i,
CN(C)c1ccc(-c2nc3c([nH]2)c(=O)n(C)c(=O)n3C)cc1,75,GIV Gai FP conf=i;GIV-Gai AS conf=i
Cn1c(=O)c2[nH]c(-c3ccc(F)c(Br)c3)nc2n(C)c1=O,i,
Cn1c(=O)c2[nH]c(-c3ccccc3)nc2n(C)c1=O,i,
C=CCNC(=O)CSc1nnc2c3ccccc3nc(-c3ccccc3)n12,i,
CCOC(=O)c1cccc(NC(=O)c2cc(-c3ccncc3)n(-c3ccccc3)n2)c1,i,
O=C(Nc1ccc(-c2ccc3ccccc3n2)cc1)C1CCCCC1,i,
COc1ccc(S(=O)(=O)NCCn2c(-c3ccc(F)cc3)nc3cccnc32)cc1,i,
CC(=O)N(C(C)=O)c1cc(C(=O)O)ccc1Sc1ccc(Br)cc1,i,
COc1cc(/C=C2\N=C(c3ccccc3)N(c3ccc(Cl)cc3C)C2=O)cc(OC)c1OC,i,
COc1ccc(/C=C2\N=C(c3ccc(Cl)cc3)N(c3ccccc3)C2=O)cc1OC,81,GIV Gai FP conf=i;GIV-Gai AS conf=i
COc1ccc(/C=C2\N=C(c3ccc(Cl)cc3)N(c3cccc(F)c3)C2=O)cc1OC,i,GIV Gai FP conf=i;GIV-Gai AS conf=i
